Measurements reported in ChEMBL document CHEMBL3085682, “Santacruzamate A, a potent and selective histone deacetylase inhibitor from the Panamanian marine cyanobacterium cf. Symploca sp” (J Nat Prod, 2013).
Active and inactive are the calls of the source. No cut-off for these calls is given here.

Protein sequences, listed by entry. Tags and fused reporters are not part of them.
UniProt Q92769, whole entry: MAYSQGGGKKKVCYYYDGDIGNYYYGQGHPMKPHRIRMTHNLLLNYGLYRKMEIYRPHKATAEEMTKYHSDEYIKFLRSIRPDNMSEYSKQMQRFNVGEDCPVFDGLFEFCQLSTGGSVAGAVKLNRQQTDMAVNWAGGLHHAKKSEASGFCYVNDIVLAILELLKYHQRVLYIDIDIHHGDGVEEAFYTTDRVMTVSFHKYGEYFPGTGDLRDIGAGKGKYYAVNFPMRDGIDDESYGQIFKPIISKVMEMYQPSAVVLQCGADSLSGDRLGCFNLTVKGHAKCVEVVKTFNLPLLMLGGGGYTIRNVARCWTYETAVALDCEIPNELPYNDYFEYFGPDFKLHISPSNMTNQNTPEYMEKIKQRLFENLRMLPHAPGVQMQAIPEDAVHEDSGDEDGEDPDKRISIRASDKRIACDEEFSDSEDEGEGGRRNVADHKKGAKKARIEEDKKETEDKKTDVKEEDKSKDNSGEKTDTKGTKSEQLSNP

Target: Histone deacetylase 2 (Homo sapiens, UniProt Q92769)
Details: 1 uM

Compound: CCOC(=O)NCCCC(=O)NCCc1ccccc1
- inhibition: Active

Compound: O=C(CCCC(=O)NCCc1ccccc1)NO
- inhibition: Active
